Data published in BindingDB's records for doi:10.1111/j.1747-0285.2007.00514.x (University of Maryland, 2007).

Target: HIV-1 protease (Human immunodeficiency virus, UniProt O90783)
Test: Inhibition Assay
Excerpt: Inhibition assay using HIV protease and Sulfonamide compounds.

| Ki | SMILES |
| --- | --- |
| 58 nM | CNC(=O)CCC(=O)N[C@@H](Cc1ccccc1)[C@H](O)CN(CC1CC1)S(=O)(=O)c1ccco1 [CARB-KB45] |
| 0.005 nM | Cc1cccc(C)c1OCC(=O)N[C@@H](Cc1ccccc1)[C@@H](O)C[C@H](Cc1ccccc1)NC(=O)[C@H](C(C)C)N1CCCNC1=O [(2S)-N-[(2S,4S,5S)-5-[2-(2,6-dimethylphenoxy)acetamido]-4-hydroxy-1,6-diphenylhexan-2-yl]-3-methyl-2-(2-oxo-1,3-diazinan-1-yl)butanamide] |
| 24 nM | CNC(=O)CCC(=O)N[C@@H](Cc1ccccc1)[C@H](O)CN(CC1CC1)S(=O)(=O)c1cccc(OC)c1 [CARB-AD37] |
